Experimental data: patent US11279712B2, “Macrocyclic compounds that inhibit MCL-1 protein” (AMGEN INC., priority 2017, dated 2022)

Tested on: OPM-2 human multiple myeloma cell line
Assay: Cell Viability Assay (OPM-2 10 FBS)
Details: read-out: OPM-2 10% FBS IC50 IP, OPM-2 cells, 16 h, CellTiter-Glo
Procedure: Cell Viability Assay (OPM-2 10 FBS)
The human multiple myeloma cell line, OPM-2, was cultured in complete growth medium containing RPMI 1640 and 10% fetal bovine serum (FBS). Cells were seeded into 384-well plates at 3000 cells/well density in complete growth medium containing 10% FBS, and incubated for 16 h with serially diluted test compounds in a 37° C. incubator with 5% CO2. Cell viability was tested using CellTiter-Glo® assay (Promega, Madison, Wis.) according to the manufacturer recommendations. Luminescence was determined using an EnVision® Multilabel plate reader 25 min after the addition of detection reagent. IC50 values were then calculated with Xlfit using a logistical 4-parameter fit model in GraphPad Prism (GraphPad Software, San Diego, Calif.) or in Genedata Screener® (Genedata, Basel, Switzerland).

Row | IC50 [nM] | SMILES
1 | 304 | C[C@H](O)[C@@H]1CCC[C@H](C)[C@@H](C)S(=O)(=O)NC(=O)c2ccc3c(c2)N(C[C@@H]2CC[C@H]21)C[C@@]1(CCCc2cc(Cl)ccc21)CO3
2 | 984 | COC[C@H]1CCC[C@H](C)[C@@H](C)S(=O)(=O)NC(=O)c2ccc3c(c2)N(C[C@@H]2CC[C@@H]12)C[C@@]1(CCCc2cc(Cl)ccc21)CO3 (single isomer, unassigned) [Example 80]
